Results as given in the NIST ThermoML archive (doi:10.1021/je0504212).
Numbers after ± are expanded uncertainties.

Details: 308.5 K; 101.33 kPa; Liquid

mass density [kg/m3]	Compound
1112.32 ± 0.64	OCCOCCOCCOCCO [tetraethylene glycol]
755.22 ± 0.64	CCCCOCCCC [dibutyl ether]
